The values below come from article PMC6201879, “N-substituted phenylbenzamides of the niclosamide chemotype attenuate obesity related changes in high fat diet fed mice” (PLoS ONE, 2018).

The subject of the data set is Escherichia coli WP2 uvrA (pKM101). The experiment in a line: Ames assay, strain WP2 uvrA (pKM101). Particulars: Positive Control chemical; concentration not given; without S9.

N-methyl-N′-nitro-N-nitrosoguanidine: the “Mean Revertant Colony Counts WP2 uvrA (pKM101) S9-” value came to 328.0.
